According to patent US12257294B2, “Therapeutics for autoimmune disease: synthetic antigens” (DANMARKS TEKNISKE UNIVERSITET, priority 2018, dated 2025):

System: NZB/W mice
Assay: Toxicity study in vivo in NZB/W mice (IL-19, KIM-1 ELISA)
Details: IV, 10 nM; blood sample 36 h after initial administration
Experimental: Nine-week-old NZB/W mice were kindly provided by Heegaard group, Statens Serum Institute, Denmark; ten mice (all females) were kept in sterile boxes covered by a filter and fed sterile water and food. The mice were grown for 10 weeks and reached weight 17-19 g in average. The mice were bled before the experiment to check for the presence of anti-dsDNA antibodies (a-dsDNA) by standard ELISA. Only those with a-dsDNA in titer 1:1000-1:12000 were used for this study. The nanoconjugate complexes were added to the tail vein. Nanoconjugate complex was administrated using IV in 1×PBS, applying the nanoconjugate complex at 160 μg/kg animal weight for 10 nM concentration. Blood samples were withdrawn 36 hours after initial administration and subjected to analysis of IL-19 and KIM-1 using commercial ELISA kits (The Quantikine human IL 19 kit, R&D Products, USA; KIM 1 ELISA kit ADI-900-226-0001, ENZO Life Sciences, USA), following manufacturers protocols.

Gentamicin
NZB/W: IL-19 (plasma): 78 pg/mL | NZB/W: KIM-1 (plasma): 2.05 ng/mL
